Assay results as given in patent US7528227B2, “Histone H2A peptide derivatives and uses thereof” (dated 2009).

What was measured:
SM-induced ear edema = experiment: SM-induced ear edema, subcutaneous administration at ear base; details: for protection (%): sc 50 μg per site 30 min after SM exposure, ear thickness 96 hours after exposure, percent of reduction in ear swelling vs control group
SM-induced skin lesions = SM-induced skin lesions in guinea pigs; details: intracardial 1 mg/kg, 7 days or 7, 5, 3 days and 20 min prior to SM; FIG. 11A-C

Substance	protection (%) (SM-induced ear edema)	other results
H-Arg-Leu-Leu-Arg-Lys-Gly-His-Tyr-Ala-Glu-Arg-Val-Gly-Ala-Gly-OH	0	–
H-Arg-Leu-Leu-Arg-Lys-Gly-His-Tyr-Ala-Glu-Arg-Val-Gly-Ala-OH	0	–
H-Arg-Leu-Leu-Arg-Lys-Gly-His-Tyr-Ala-Glu-Arg-Val-Gly-OH	0	–
H-Arg-Lys-Gly-His-Tyr-Ala-Glu-Arg-Val-Gly-Ala-OH	11	–
H-Arg-Lys-Gly-His-Tyr-Ala-Glu-Arg-Val-Gly-OH	25	–
H-Leu-Arg-Lys-Gly-His-Tyr-Ala-Glu-Arg-Val-Gly-Ala-Gly-OH	0	–
H-Leu-Arg-Lys-Gly-His-Tyr-Ala-Glu-Arg-Val-Gly-Ala-OH	0	–
H-Leu-Arg-Lys-Gly-His-Tyr-Ala-Glu-Arg-Val-Gly-OH	0	–
H-Leu-Leu-Arg-Lys-Gly-His-Tyr-Ala-Glu-Arg-Val-Gly-Ala-Gly-OH	6	–
H-Leu-Leu-Arg-Lys-Gly-His-Tyr-Ala-Glu-Arg-Val-Gly-Ala-OH	0	–
H-Lys-Gly-His-Tyr-Ala-Glu-Arg-OH	–	effect on SM-induced ear edema (SM-induced ear edema; sc 50 μg per site at time intervals after SM, 96 hours after exposure, FIG. 3): protective effect
H-Lys-Gly-His-Tyr-Ala-Glu-Arg-Val-Gly-Ala-Gly-OH	0	–
H-Lys-Gly-His-Tyr-Ala-Glu-Arg-Val-Gly-Ala-OH	0	–
H-Lys-Gly-MeHis-MeTyr-Ala-Glu-Arg-Val-Gly-OH	–	effect on SM-induced ear edema (SM-induced ear edema; sc 30 min after SM, as a function of peptide concentration, 120 hours after exposure, FIG. 2): protective effect
KGNYAERIA	–	protection against SM-induced skin lesions (ulceration area) (SM-induced skin lesions): statistically significant protection
